What all share (test): cell-based or functional assay
In assay [1] the target is human CXCR4 (human) (UniProt P61073).
Assay [2] has the same target. This is another data set of the same source.
For assay [3] the target is unchanged. The source holds these as a separate data set.

By UniProt entry, the sequences of proteins in these tests, tags left out.
UniProt P61073, whole entry: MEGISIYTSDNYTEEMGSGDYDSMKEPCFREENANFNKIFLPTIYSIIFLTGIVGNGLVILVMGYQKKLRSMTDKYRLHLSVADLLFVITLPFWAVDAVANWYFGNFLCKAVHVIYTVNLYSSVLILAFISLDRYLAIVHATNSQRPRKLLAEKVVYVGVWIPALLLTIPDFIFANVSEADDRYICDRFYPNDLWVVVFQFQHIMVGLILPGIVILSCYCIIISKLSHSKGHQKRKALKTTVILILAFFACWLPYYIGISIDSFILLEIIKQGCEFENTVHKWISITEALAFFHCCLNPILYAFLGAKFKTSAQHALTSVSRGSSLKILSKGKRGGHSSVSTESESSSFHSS

Like-named read-outs stand apart in the source and are kept apart here.

In the assay with human CXCR4 (human) [1], MDX-1338 (antibody) registered a Chemotaxis IC50 (M) +HSA of 1.78e-09 M and a Chemotaxis IC50 (M) -HSA of 2.01e-09 M. Further, in the assay with human CXCR4 (human) [2], the Chemotaxis IC50 (M) +HSA is 1.7e-09 M, the Chemotaxis IC50 (M) -HSA turned out to be 1.61e-09 M, the Chemotaxis Jurkat cells % inhib. came out at 87% and the Chemotaxis Jurkat cells IC50 (M) n=1 came out at 3e-09 M. In the assay with human CXCR4 (human) [2], the cAMP inhibition assay IC50 (M) n=1 came to 7.5e-07 M and the cAMP inhibition assay IC50 (M) n=2 is 7.8e-07 M. For the same substance, in the assay with human CXCR4 (human) [3], the Chemotaxis IC50 (M) +HSA worked out at 1.52e-09 M, the Chemotaxis Jurkat cells % inhib. was 94.1%, the Reporter assay: competition IC50 (M) +HSA turned out to be 3.73e-09 M and the Reporter assay: competition IC50 (M) -HSA came to 5.46e-09 M.

The values above are taken from WO2011083140A1 (dated 2011).
